According to patent US20020069423A1 (priority 2000, published 2002):

Tested on: untransfected bovine fetal fibroblasts (BFF cells)
Experiment: G418 drug selection (kill curve) of untransfected BFF cells
Format: cell-based
Conditions: period of ten days; 400 to 3000 ug/ml tested

CN[C@@H]1[C@@H](O)[C@@H](O[C@@H]2[C@@H](O)[C@H](O[C@H]3O[C@H]([C@@H](C)O)[C@@H](O)[C@H](O)[C@H]3N)[C@@H](N)C[C@H]2N)OC[C@]1(C)O [G418, geneticin (G418)]
optimal drug selection concentration producing stable, neomycin-resistant colonies: 400 µg/mL
